Screens deposited in PubChem BioAssay by National Center for Advancing Translational Sciences (NCATS).
TDP1 cell noCPT = qHTS for Inhibitors of human tyrosyl-DNA phosphodiesterase 1 (TDP1): qHTS in cells in absence of CPT; DT40 Tdp1-/- hTDP1 cells, no CPT, ATP luminescence, 48 h; Potency, µM (highest dose often 46.2 µM), for inactives: at the highest dose activity change, negative = growth inhibition, actives largely listed as inhibitors; 420,000 tested, 15% active; further: potency means the concentration at half of the fitted maximal effect; on the % scale 0 is the no-effect control and ±100 the full control effect; nearly all actives have a fitted effect of over 55% in size
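Seeded 400 DT40-hTDP1 cells/well (vehicle DMSO, no 20 nM CPT); pinned compounds; ≥48 hr at 37 °C; CellTiter-Glo luminescence as viability measure.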
DT40 TDP1 CPT = DT40-hTDP1 cell growth loss with CPT; chicken DT40 Tdp1-/-;hTDP1 cells + 20 nM CPT, ATP luminescence, 48 h; Potency, µM (titrated, usually from 46.2 µM), for inactives: at the highest dose activity change, negative = growth inhibition, hits mostly inhibitors; 420,000 tested, 12% active; AID 686979; further: potency means the concentration at half of the fitted maximal effect; on the % scale 0 is the no-effect control and ±100 the full control effect; nearly all actives have a fitted effect of over 55% in size
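Chicken DT40 Tdp1-/- cells complemented with human TDP1, 400 cells/well, exposed to compounds plus 20 nM camptothecin for at least 48 h at 37 C; viability read as ATP content by CellTiter-Glo luminescence.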
uPA generation = inhibitors of cell surface uPA generation; cell surface uPA generation assay, qHTS; Potency, µM (highest dose often 38.3 µM), for inactives: at the top dose activity change, negative = inhibition, most hits filed as inhibitors; AID 540303; 330,000 tested, 0.31% active; active means well fitted inhibition curve with a large enough effect; inconclusive means small, poorly fitted or top-dose-only effect; inactive means no such curve, though single readings can be large or run the other way; tested in mouse RAW 264.7 cells; further: potency means the concentration at half of the fitted maximal effect; on the % scale 0 is the no-effect control and ±100 the full control effect; nearly all actives have a fitted effect of over 55% in size
TDP1 inh = blocks human tyrosyl-DNA phosphodiesterase 1. recombinant TDP1, AlphaScreen DNA substrate cleavage. Potency, µM (highest dose often 130 µM), inactives show at the highest dose activity change, negative = inhibition, most hits filed as inhibitors. 350,000 tested, 0.28% active; further: potency means the concentration at half of the fitted maximal effect; on the % scale 0 is the no-effect control and ±100 the full control effect; nearly all actives have a fitted effect of over 40% in size
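Enzyme-compound mixtures sat 15 min at room temperature, followed by a 5 min reaction with 15 nM final substrate and 10 min with AlphaScreen beads. Recombinant human Tdp1 was used at 1 nM final.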
miR-21 reporter = raises the signal of a miR-21 reporter | HeLa miR-21 FLuc reporter, luciferase, 48 h | Potency, µM (doses to about 38.3 µM), for the others: at the highest dose reporter change, positive = more light | 340,000 tested, under 10 active | AID 2288; active = well fitted rising curve with a large enough effect; inconclusive = small, poorly fitted or top-dose-only effect; inactive = no such curve, though single readings can be large or run the other way;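 also: % of control where 0% means no effect; miR-21 action dims this reporter so a rising signal means less miR-21 action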
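HeLa cells endogenously expressing miR-21, stably carrying CMV-driven firefly luciferase with a downstream miR-21 binding site, 2000 cells/well. Titrations up to approximately 40 uM, 48 hours; luciferase luminescence read.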
* = called active by the depositor; ? = inconclusive; nt = no result. Rows were chosen to be rich in hits. Some 16% of all compounds tested hit in one or more screens of this group. Unless noted, the call rests on the fitted dose curve; in most records, active means well fitted curve in the direction sought with a large enough effect; inconclusive means small, poorly fitted or top-dose-only effect, or another doubt; inactive means no such curve, though single readings can be large; an effect the other way counts as inactive or inconclusive.

SMILES | TDP1 cell noCPT | DT40 TDP1 CPT | uPA generation | TDP1 inh | miR-21 reporter
C/C(N)=C(/C#N)C(=O)CSc1nc2ccccc2c(=O)n1-c1ccccc1C | ? | ? | -22% | -2% | -23%
O=c1cc(-c2ccccc2)[nH]n1-c1ccc([N+](=O)[O-])cc1 | ? | 18µM* | nt | 12% | -20%
NC(=O)c1ccc(N=Nc2c(-c3ccccc3)[nH]n(-c3ccccc3)c2=O)cc1 | nt | nt | nt | 5% | 0%
O=c1c(N=Nc2ccc(O)cc2)c(-c2ccccc2)[nH]n1-c1ccc([N+](=O)[O-])cc1 | 16µM* | ? | -8% | 0% | -1%
CCN(CC)CCCNC(=O)Cn1nc(C)n2c(cc3sccc32)c1=O | -10% | 2% | nt | -7% | 0%
COc1ccc2c(c1)c(C(=O)N/N=C/c1ccc(Br)cc1)c(C)n2C | 10µM* | 10µM* | 11µM* | nt | 19%
COc1ccc2c(c1)c(C(=O)OCCN(C)C)c(C)n2C | ? | -14% | -7% | 2% | -1%
COc1ccc2c(c1)c(/C=N/Nc1ccc(C(=O)O)cc1)c(C)n2C | -15% | 10% | 7% | 10% | -54%
CCOc1ccc(/C=N/NC(=O)c2c(C)n(C)c3ccc(OC)cc23)cc1 | 5.8µM* | 5.2µM* | -8% | -1% | 15%
COc1ccc2c(c1)c(C(=O)N/N=C/c1ccc(O)c(O)c1)c(C)n2C | 26µM* | ? | -8% | 3% | -4%
COc1ccc(NC(=O)NNC(=O)c2ccccc2-n2cccc2)cc1OC | -19% | 1% | 3% | 5% | 1%
Cc1nc(NC(=O)/C=C/c2ccc(F)cc2)sc1C(=O)N(C)C | -25% | -14% | 17% | 2% | -16%
CCOc1ccc(C(=O)NCC2CCCO2)cc1 (configuration not stated) | 2% | -6% | nt | 7% | -38%
CC1(C)CC(N2CCCC2)=CC(=[N+]2CCCCC2)C1 | 0.26µM* | 0.41µM* | ? | 2% | ?
CC1(C)CC(NNCCC#N)=CC(=[N+]2CCCC2)C1 | ? | ? | -5% | -3% | 4%
CC1(C)CC(=O)c2sc(N3CCCCC3)nc2C1 | -13% | 0% | -4% | 8% | -48%
CN(Cc1ccccc1)C1=CC(=[N+]2CCCCC2)CC(C)(C)C1 | 0.01µM* | 0.15µM* | ? | 8% | ?
CC1(C)CC(=O)C=C(N2CCN(C3=CC(=O)CC(C)(C)C3)CC2)C1 | nt | nt | nt | -4% | 2%
CC1(C)CC(N2CCN(Cc3ccccc3)CC2)=CC(=[N+]2CCCCC2)C1 | 0.046µM* | 0.058µM* | -6% | 5% | ?
CC1(C)CC(N2CCCC2)=CC(=[N+]2CCCC2)C1 | 0.29µM* | 0.41µM* | ? | -1% | ?

Single records (already shown).
Profile of COc1ccc2c(c1)c(C(=O)N/N=C/c1ccc(O)c(O)c1)c(C)n2C = TDP1 cell noCPT: 26µM*; DT40 TDP1 CPT: ?; uPA generation: -8%; TDP1 inh: 3%; miR-21 reporter: -4%
Profile of NC(=O)c1ccc(N=Nc2c(-c3ccccc3)[nH]n(-c3ccccc3)c2=O)cc1 = TDP1 cell noCPT: nt; DT40 TDP1 CPT: nt; uPA generation: nt; TDP1 inh: 5%; miR-21 reporter: 0%

(list continues)
SMILES | TDP1 cell noCPT | DT40 TDP1 CPT | uPA generation | TDP1 inh | miR-21 reporter
O=C1c2cccc3c(Nc4ccccc4Cl)c([N+](=O)[O-])cc(c23)C(=O)N1CCO | ? | ? | -11% | -3% | 2%
CC1(C(=O)Nc2ccc3c(c2)OCCO3)CCC(=O)N1CC(F)(F)F (configuration not stated) | 5% | -9% | nt | nt | nt
Cc1ccc(-c2c3c(=O)n(C)c(=O)n(C)c3cn2Cc2ccccc2)cc1 | ? | ? | -1% | 5% | -8%
COc1ccc(CC(=O)NC2CC(=O)N(c3ccc4c(c3)OCCO4)C2)cc1 (configuration not stated) | 10% | -4% | nt | 3% | -6%
C/C(=N\Nc1ccc([N+](=O)[O-])cc1)c1ccc(-n2nncc2C)cc1 | 21µM* | ? | -15% | -3% | -6%
O=[N+]([O-])c1ccc(C=NNc2ccccc2)cc1 | ? | -7% | 7% | nt | nt
CC(C)(C)c1cnnn1-c1ccc(/C=N/Nc2ccc([N+](=O)[O-])cc2)cc1 | 13µM* | 18µM* | -29% | 1% | -5%
C/C(=N\Nc1nc(C)c(C)s1)c1ccc([N+](=O)[O-])cc1 | 21µM* | ? | -4% | 9% | -14%
COC1=CC(=O)C(OC)=C(OC)C1=O | 1.2µM* | 0.73µM* | -24% | nt | nt
C#CCN(Cc1ccccc1)S(=O)(=O)C=C | ? | 25µM* | ? | -1% | nt
COc1cc(/C=N/NC(=O)c2ccc(C)nc2)cc([N+](=O)[O-])c1O | -12% | 20% | 2% | 5% | 5%
COc1cc([N+](=O)[O-])cc(/C=N/NC(=O)c2ccc(C)nc2)c1O | 2.9µM* | 5.2µM* | -4% | -7% | -7%
COc1cc([N+](=O)[O-])cc(/C=N/NC(=O)C(C)Nc2ccccc2C)c1O (configuration not stated) | 18µM* | 15µM* | -8% | 11% | 1%
Cc1ccc(C(=O)N/N=C/c2cc(Br)ccc2O)cn1 | 5.2µM* | 4.1µM* | ? | nt | 12%
COc1cc([N+](=O)[O-])cc(/C=N/NC(=O)c2ccc(NC(=O)c3ccc(C)cc3)cc2)c1O | 4.1µM* | 2.9µM* | -2% | -5% | 15%
COc1ccc(/C=N/NC(=O)c2ccc(NC(=O)c3cccc([N+](=O)[O-])c3)cc2)c(OC)c1 | ? | -26% | -4% | 5% | 5%
c1ccc(-c2ncc3c(ccc4ccccc43)n2)cc1 | -17% | -22% | 1% | -3% | -63%
CCCCCCCCOc1ccc(C(=O)c2ccccc2)c(O)c1 | -26% | 4% | nt | nt | nt
CCc1cccc(C)c1NC(=O)COn1nnc2ccc(C(F)(F)F)cc21 | ? | ? | 7% | 0% | -6%
COC(=O)C1(NC(=O)NC23CC4CC(CC(C4)C2)C3)CCCCC1 | -2% | 4% | -5% | -2% | -2%
COc1cccc(CN(C)C(=O)CCN=C2NS(=O)(=O)c3ccccc32)c1OC | -4% | 9% | 3% | 1% | nt
CCOCCn1c(N2CCCC2)nc2c1c(=O)n(C)c(=O)n2C | ? | ? | -4% | nt | 0%
Cc1ccc(NC(=O)C2=C(C(=O)O)CCCC2)cc1Br | 5% | 32% | -3% | 6% | -5%
C/C=C\C=C\C(=O)N1CC2(CC(c3cccc(NC(=O)CC(c4ccccc4)c4ccccc4)c3)=NO2)C[C@H]1C(N)=O (some centres not stated) | 18µM* | ? | 1% | -1% | 12%
C/C=C(\C)C(=O)N1CC2(CC(c3cccc(NC(=O)CC(c4ccccc4)c4ccccc4)c3)=NO2)C[C@H]1C(N)=O (some centres not stated) | nt | nt | nt | 5% | 25%
C/C=C\C=C/C(=O)Nc1cccc(C2=NOC3(C2)C[C@@H](C(N)=O)N(C(=O)/C=C/C=C\C)C3)c1 (some centres not stated) | 0% | ? | -7% | 20µM* | 1%
COc1ccc(C2CC(c3cc(Br)ccc3F)n3nnnc3N2)cc1 (configuration not stated) | ? | ? | -2% | 9% | -3%

In the list so far, these have a cyano group.
SMILES | TDP1 cell noCPT | DT40 TDP1 CPT | uPA generation | TDP1 inh | miR-21 reporter
C/C(N)=C(/C#N)C(=O)CSc1nc2ccccc2c(=O)n1-c1ccccc1C | ? | ? | -22% | -2% | -23%
CC1(C)CC(NNCCC#N)=CC(=[N+]2CCCC2)C1 | ? | ? | -5% | -3% | 4%
